# Test results reported in patent US20110124572A1, “SYNDECAN-4 IS A REGULATOR OF RAC1-GTP” (priority 2008, published 2011).
# Amino acid sequences for entries named in this document (tags omitted). Residues count along the entry.
# UniProt Q13009, 2-1591 limits assumed: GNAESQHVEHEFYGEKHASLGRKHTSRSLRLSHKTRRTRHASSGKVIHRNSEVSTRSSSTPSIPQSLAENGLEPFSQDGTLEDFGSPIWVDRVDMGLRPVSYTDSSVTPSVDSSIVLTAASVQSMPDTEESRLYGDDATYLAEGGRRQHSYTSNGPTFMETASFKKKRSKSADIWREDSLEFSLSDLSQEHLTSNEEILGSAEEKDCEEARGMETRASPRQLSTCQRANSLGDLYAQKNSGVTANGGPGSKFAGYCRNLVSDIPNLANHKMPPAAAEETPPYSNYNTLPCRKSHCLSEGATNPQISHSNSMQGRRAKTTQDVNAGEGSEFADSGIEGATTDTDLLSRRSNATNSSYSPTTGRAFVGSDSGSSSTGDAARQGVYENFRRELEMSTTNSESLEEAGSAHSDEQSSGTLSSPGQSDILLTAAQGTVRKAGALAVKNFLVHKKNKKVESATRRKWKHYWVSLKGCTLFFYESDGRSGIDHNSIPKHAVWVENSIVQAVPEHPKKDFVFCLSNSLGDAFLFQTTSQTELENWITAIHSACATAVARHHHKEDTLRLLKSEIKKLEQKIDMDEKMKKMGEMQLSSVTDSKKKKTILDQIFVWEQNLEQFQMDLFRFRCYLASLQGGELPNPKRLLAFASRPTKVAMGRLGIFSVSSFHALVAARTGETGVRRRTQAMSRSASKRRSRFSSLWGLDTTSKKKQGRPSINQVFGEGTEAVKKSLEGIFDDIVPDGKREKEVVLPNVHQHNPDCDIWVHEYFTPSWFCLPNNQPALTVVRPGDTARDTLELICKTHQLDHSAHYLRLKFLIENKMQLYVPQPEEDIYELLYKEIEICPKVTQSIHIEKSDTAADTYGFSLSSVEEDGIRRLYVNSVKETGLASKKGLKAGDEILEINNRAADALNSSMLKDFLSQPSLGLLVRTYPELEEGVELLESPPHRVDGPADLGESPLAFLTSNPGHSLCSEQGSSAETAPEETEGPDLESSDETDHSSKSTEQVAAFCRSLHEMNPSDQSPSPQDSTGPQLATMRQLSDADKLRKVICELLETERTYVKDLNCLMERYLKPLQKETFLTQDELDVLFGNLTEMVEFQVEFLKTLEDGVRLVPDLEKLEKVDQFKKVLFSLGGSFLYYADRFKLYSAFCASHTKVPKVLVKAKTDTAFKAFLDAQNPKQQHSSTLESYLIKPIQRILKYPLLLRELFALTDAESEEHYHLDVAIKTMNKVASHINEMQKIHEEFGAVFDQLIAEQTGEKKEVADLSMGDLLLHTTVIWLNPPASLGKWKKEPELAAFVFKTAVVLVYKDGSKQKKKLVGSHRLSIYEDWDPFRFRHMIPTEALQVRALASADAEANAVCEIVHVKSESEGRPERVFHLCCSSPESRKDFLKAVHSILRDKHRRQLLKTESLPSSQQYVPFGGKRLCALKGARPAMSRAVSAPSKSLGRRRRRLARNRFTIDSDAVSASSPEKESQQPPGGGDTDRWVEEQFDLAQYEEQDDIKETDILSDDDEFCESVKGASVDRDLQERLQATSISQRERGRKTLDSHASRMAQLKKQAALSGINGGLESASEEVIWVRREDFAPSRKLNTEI
# UniProt Q13153, 67-150 limits assumed: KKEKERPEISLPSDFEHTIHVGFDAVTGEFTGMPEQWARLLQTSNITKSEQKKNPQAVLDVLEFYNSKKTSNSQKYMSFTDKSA
# Experiments:
# [1] = biological target: Tiam-1, Rac1-specific guanine nucleotide exchange factor (RacGEF) (UniProt Q13009); test: cell-based or functional assay
# [2] = biological target: p21-binding domain of PAK-1 fused to agarose beads (GST-Pak1-Rac/Cdc42-binding domain), as used in the Rac1 activation kit (UniProt Q13153); test: PAK-1 p21-binding domain (PAK-PKB) pull-down from cell lysate, blot with anti-syndecan-4 or anti-GFP
substance,measurement,setting,value
"Ser179Ala syndecan-4 (GFP chimera, phosphodefective mutant) (from UniProt P31431 19-198; P42212 1-238)","relative Rac1-GTP level (nt, not treated) (relative to wt-syndecan-4 line)",[1],1.9
same,amount of pulled-down syndecan-4 against wt-syndecan-4 (% more than wt-syndecan-4),[2],20
"Ser179Glu syndecan-4 (GFP chimera, phospho-mimetic mutant) (from UniProt P31431 19-198; P42212 1-238)",Rac1-GTP level (fold decrease),[1],1.5
same,"relative Rac1-GTP level (nt, not treated) (relative to wt-syndecan-4 line)",[1],0.6
